From US20080181848A1 (priority 2004, published 2008)

Chains of the proteins cited; added tags and fusions are not shown.
UniProt P14416, whole entry: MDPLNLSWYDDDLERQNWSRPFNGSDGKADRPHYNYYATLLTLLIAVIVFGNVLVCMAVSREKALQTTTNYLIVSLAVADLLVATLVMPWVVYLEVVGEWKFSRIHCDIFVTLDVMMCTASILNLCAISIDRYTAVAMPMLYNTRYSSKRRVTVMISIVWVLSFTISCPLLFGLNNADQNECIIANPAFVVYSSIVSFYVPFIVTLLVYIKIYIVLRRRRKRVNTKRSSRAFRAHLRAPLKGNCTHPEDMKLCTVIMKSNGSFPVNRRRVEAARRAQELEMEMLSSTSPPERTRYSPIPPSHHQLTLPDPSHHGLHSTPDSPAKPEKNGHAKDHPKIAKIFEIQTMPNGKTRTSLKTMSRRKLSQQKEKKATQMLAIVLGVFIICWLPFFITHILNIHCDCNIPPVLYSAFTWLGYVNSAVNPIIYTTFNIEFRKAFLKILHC

Biological target: D2^high receptors in caudate nucleus (Homo sapiens, UniProt P14416)
Settings: PET

Substance: [^11C]-(+)-4-propyl-9-hydroxy-2,3,4a,5,6,10b-hexahydro-4H-naphth[1,2b][1,4]-oxazine HCl [[^11C](+)PHNO]
- time of peak emission in the caudate nucleus after intravenous injection (bolus plus infusion i.v.): 10 min
- peak emission in the caudate nucleus (i.v., of the order of): ~0.2 % of the injected dose per kg
